Biological target: Cannabinoid receptor 1 (Rattus norvegicus, UniProt P20272)
Test: […] [3H]WIN-55212 binding to Cannabinoid receptor 1 in rat cerebellum membranes.
Format: cell membranes, Membrane

Amino acid sequences for entries named in this document (tags omitted).
UniProt P20272, whole entry: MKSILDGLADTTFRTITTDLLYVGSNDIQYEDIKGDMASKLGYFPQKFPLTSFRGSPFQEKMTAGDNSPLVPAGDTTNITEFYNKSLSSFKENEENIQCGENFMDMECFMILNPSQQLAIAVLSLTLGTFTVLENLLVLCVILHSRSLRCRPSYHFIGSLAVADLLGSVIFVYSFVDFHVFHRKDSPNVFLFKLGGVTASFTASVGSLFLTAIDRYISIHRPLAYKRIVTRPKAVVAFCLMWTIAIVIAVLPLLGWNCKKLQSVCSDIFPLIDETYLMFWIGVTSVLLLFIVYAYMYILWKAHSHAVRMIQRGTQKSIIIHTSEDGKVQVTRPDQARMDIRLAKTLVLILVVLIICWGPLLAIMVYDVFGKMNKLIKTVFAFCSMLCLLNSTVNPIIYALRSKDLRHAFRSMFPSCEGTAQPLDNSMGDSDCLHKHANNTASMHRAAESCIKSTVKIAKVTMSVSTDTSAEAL

Cc1c(C(=O)c2ccc3cccnc3c2)c2ccccc2n1CCN1CCOCC1 showed an IC50 of 177 nM.

From ChEMBL document CHEMBL1128746, “Aminoalkylindoles: structure-activity relationships of novel cannabinoid mimetics” (J Med Chem, 1995)
